Test results taken from paper PMC5421360 (Peptides, 2017).
≈ marks a conversion by molar mass, not a printed value.

Protein sequences, listed by entry. Tags and fused reporters are not part of them. Residues count along the entry.
UniProt P25101, 21-427: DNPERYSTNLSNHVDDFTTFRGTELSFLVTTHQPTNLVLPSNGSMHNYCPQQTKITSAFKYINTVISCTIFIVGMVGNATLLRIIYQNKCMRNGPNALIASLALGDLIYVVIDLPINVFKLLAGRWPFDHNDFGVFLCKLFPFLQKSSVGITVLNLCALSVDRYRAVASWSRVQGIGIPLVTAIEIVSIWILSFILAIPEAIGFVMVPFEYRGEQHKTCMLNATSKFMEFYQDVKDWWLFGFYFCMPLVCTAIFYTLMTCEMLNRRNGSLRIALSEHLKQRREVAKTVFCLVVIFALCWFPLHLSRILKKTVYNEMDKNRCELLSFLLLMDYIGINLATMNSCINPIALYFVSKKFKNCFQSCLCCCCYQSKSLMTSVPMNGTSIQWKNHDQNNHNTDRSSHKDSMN

Tests used:
[1] = biological target: T1, ETAR (Homo sapiens, UniProt P25101); experiment: 125I-ET-1 radioreceptor binding to NCI-H838 cells
[2] = biological target: T1, ETAR; experiment: 125I-ET-1 radioreceptor binding to NCI-H1975 cells
[3] = tested on: NCI-H727 cells; experiment: MTT proliferation assay, NCI-H727 cells; format: cell-based; settings: Homo sapiens, NCI-H727, 48 h, read-out: IC50, proliferation

Structure (SMILES): COc1nc(C)cnc1NS(=O)(=O)c1cccnc1-c1ccc(-c2nnco2)cc1 [ZD4054, zibotentan]
- IC50 [1]: 0.5 ± 0.1 nM
- IC50 [2]: 0.7 ± 0.2 nM
- IC50 [3]: 30 µg/mL (≈ 70.7 µM)
